Assay results published in US9060994B2, “Combination therapy with interferon and andrographolides for Multiple Sclerosis” (Inno Biosciences, S.p.A., priority 2011, dated 2015).

Columns and labels:
[1] = system: MS patients
[2] = system: MOG-immunized C57BL/6J mice; experiment: MOG-induced EAE mice, clinical score; type: in vivo; conditions: chronic EAE mice immunized with MOG, administered during active phase (day 16-31), compared with saline injected controls
Protocol: EAE was induced by immunization with myelin oligodendrocyte glycoprotein (MOG)35-55 peptide ([…]) or proteolipid protein (PLP)139-151 ([…]; CPC Scientific, Sunnyvale, Calif., USA) emulsified at 1.5 mg/ml in PBS with an equal amount of incomplete Freund's adjuvant (IFA; DIFCO, MI, USA) supplemented with 2.5 mg/ml Mycobacterium tuberculosis, strain H37Ra (Difco, Detroit, Mich.). Mice were immunized subcutaneously with 200 ml emulsion. Pertussis toxin (LIST […], CA, USA), 200 ng in 200 μl PBS, was injected intraperitoneally at day 0 and 2 after initial immunization.
Animals were scored for clinical symptoms as follows: 0=no signs of disease; 1=lost of tail tone; 2=flaccid tail; 3=partial hind limb paralysis; 4=complete hind limb paralysis; 5=moribund required to sacrifice the animal; 6=death.
For IFN-β assays, C57BL/6, were administered intraperitoneally with 1 μg of IFN-β (IFN-β Rebif 88 μ/ml MERCK SORONO) in 200 μL PBS. Control mice were injected with 200 μL PBS.
IFN-β was administrated from day 15 to 30 post-immunization, daily.
For combined therapy (CT) assays, C57BL/6, were administered intraperitoneally with 4 mg/kg of andrographolide and IFN-β 1 ug in 200 μL PBS. Control mice were injected with 200 μL PBS.
Combined therapy (CT) was administrated from day 15 to 30 post-immunization, either daily or every second day. At day 36 all animals were sacrificed. […]

[3] = interferon beta monotherapy, 12 months

Substance: IFN-β: Interferon beta; Rebif in mice; Avonex, Rebif or Betaferon/Betaseron in patients
- total number and size of demyelinating lesions in the brain ([1]; MRI): No change
- inflammatory activity of demyelinating lesions ([1]; MRI Gadolinium contrast medium uptake, versus time 0): Some degree of reduction of inflammatory activity
- appearance of flu-like symptoms (aches and pains, fever, chills, sweating or headache) ([1]; human, in vivo): 6 of 8
- depression ([1]; human, in vivo): Two patients reported mild depression
- antigravity displacement [1, 3]: No effect
- clinical signs of subjective wellness [1, 3]: No patients showed clinical signs of subjective wellness
- speech impairment, vision, deglutition and fine motricity [1, 3]: No improvement
- symptomatic control of fatigue and improvement of mood [1, 3]: no degree of symptomatic control
- mean clinical scores [2]: mild decrease in mean clinical scores
